This test is described as follows: Sheep model of allergic asthma (Ascaris suum challenge). Type of test: in vivo. The conditions noted are these: 30 mg/sheep, 45% PEG400/55% citrate buffer, 60 minutes prior to challenge. How it is done: Sheep develop bronchoconstriction within minutes of exposure to inhaled antigen (Ascaris suum), with maximal airflow obstruction during the early allergic response (EAR). Release of preformed mast cell mediators is likely responsible for this early phase of airflow obstruction. […] In the sheep, AHR develops a few hours following antigen challenge, and can persist for up to 2 weeks.
In the sheep model of allergic asthma, sheep are administered aerosols of test article via an endotracheal tube, followed by an aerosol challenge with antigen extracted from the roundworm, Ascaris suum, to which the sheep are naturally allergic. Allergen challenge leads to direct bronchoconstriction (both EAR and LAR) and a persistent non-specific AHR. These three characteristics are similar to those seen in human allergic asthmatics. The activity of the test agent is determined by changes in the lung resistance (RL), which is calculated from measurements of transpulmonary pressure, flow, and respiratory volume. […] The LAR is a less pronounced increase in RL, which starts approximately 5-6 hours following allergen challenge and is resolved by 8 hours post-challenge. Twenty-four hours after the challenge, a dose response to carbachol is measured to determine the AHR, which is expressed as the dose of carbachol required to increase RL by 400% over baseline. […]

In the case of `Nc1cccc(Nc2ncc(F)c(Nc3cccc(N)c3)n2)c1` [R921302, N2,N4-Bis(3-aminophenyl)-5-fluoro-2,4-pyrimidinediamine], the “EAR (in words)” value is recorded as “unaffected”; the “LAR and AHR (in words)” value was “blocked”.

These data come from US9499493B2, “2,4-pyrimidinediamine compounds and their uses” (Rigel Pharmaceuticals, Inc., priority 2002, dated 2016).
